{"source": "patent US6177441A", "about": "“Treating red blood cell solutions with anti-viral agents” (Cerus Corporation, priority 1998, dated 2001)", "tested_on": "red blood cells"}
{"smiles": "O=C(O)CCCc1ccc(N(CCCl)CCCl)cc1", "note": "[Chlorambucil, chlorambucil]", "values": [{"measurement": "potassium leakage of red cells", "value": "did not alter potassium leakage"}]}
